Assay results taken from patent publication US20110263693A1, “CELASTROL, GEDUNIN, AND DERIVATIVES THEREOF AS HSP90 INHIBITORS” (DANA-FARBER CANCER INSTITUTE, INC., priority 2006, published 2011).

How the values were obtained:
HSP90α = HSP90α (Homo sapiens, UniProt P07900); assay: Geldanamycin competition assay (Cy3B-geldanamycin fluorescence polarization); type: binding; set-up: purchased Stressgen SPP776 / SPP-776; conditions: celastrol and gedunin at concentrations up to ~100 μM
in vitro = conditions: human

SMILES	competition with Cy3B-geldanamycin for binding to the ATP-binding pocket of HSP90α (HSP90α)	viability (in vitro)
C=CCNC1=C2C[C@@H](C)C[C@H](OC)[C@H](O)[C@@H](C)/C=C(\C)[C@H](OC(N)=O)[C@@H](OC)/C=C\C=C(/C)C(=O)NC(=CC1=O)C2=O [17-AAG, 17-allylamino-geldanamycin, reference compound]	competed with geldanamycin binding at low concentrations	
COP(=S)(OC)Oc1ccc([N+](=O)[O-])cc1 [methyl parathione]		65.8%
